“And” between values parts separate entries of the source, which are not always exact repeats. Equal values may be shown once.
Biological target: κ opioid receptor (κ-OR) (Homo sapiens, UniProt P41145)
Assay: Radioligand displacement, κ

Protein sequences, listed by entry. Tags and fused reporters are not part of them. Lines headed by an entry give the natural chain unless they say otherwise; changes in a name come on top.
UniProt P41145: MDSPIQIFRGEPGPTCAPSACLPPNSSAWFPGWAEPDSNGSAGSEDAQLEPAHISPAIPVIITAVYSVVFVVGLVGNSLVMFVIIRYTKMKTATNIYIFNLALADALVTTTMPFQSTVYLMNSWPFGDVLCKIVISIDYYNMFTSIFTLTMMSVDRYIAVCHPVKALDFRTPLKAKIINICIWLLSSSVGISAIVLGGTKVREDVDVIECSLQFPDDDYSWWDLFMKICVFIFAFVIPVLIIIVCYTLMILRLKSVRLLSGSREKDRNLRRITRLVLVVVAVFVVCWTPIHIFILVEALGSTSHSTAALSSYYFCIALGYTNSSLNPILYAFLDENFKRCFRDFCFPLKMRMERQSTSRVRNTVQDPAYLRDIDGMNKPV

SMILES: N=C(N)Nc1ccc2[nH]c3c(c2c1)C[C@@]1(O)[C@H]2Cc4ccc(O)c5c4[C@@]1(CCN2CC1CC1)[C@H]3O5 [GNTI, 5′-guanidinonaltrindole]
- Ki (K i): 3 nM
- Ki (Ki): 1 nM and 3.4 nM

— paper PMC3747596 (PLoS ONE, 2013)
